{
  "sequences": {"note": "The chains behind the UniProt entries cited, without tags or fusion partners. Where a name states a change or a piece, a line headed by the entry shows the natural chain unless it says otherwise.", "UniProt P41144": "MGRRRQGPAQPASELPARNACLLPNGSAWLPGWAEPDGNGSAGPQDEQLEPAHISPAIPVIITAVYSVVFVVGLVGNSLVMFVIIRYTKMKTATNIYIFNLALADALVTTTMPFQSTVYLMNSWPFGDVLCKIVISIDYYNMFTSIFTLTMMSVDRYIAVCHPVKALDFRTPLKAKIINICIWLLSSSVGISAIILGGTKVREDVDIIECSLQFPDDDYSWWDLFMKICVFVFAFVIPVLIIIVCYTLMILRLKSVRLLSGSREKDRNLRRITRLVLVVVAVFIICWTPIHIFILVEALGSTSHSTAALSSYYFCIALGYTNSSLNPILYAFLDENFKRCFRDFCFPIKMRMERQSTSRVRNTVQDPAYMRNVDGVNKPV"},
  "source": "patent US4490363A",
  "about": "“Metorphamide--a novel morphine-like peptide” (Board of Trustees of The Leland Stanford Junior University …, priority 1983, dated 1984)",
  "molecular_target": "T1, κ-site (Cavia porcellus, UniProt P41144)",
  "T1 construct": "The assays used homogenates of guinea-pig brain; from tissue; host or cells: guinea pig brain homogenate",
  "experiment": "Binding assay in guinea pig brain homogenates, [3H]-(-)-bremazocine after suppression of μ- and δ-binding",
  "data": [
    {"smiles": "CSCC[C@H](NC(=O)[C@H](Cc1ccccc1)NC(=O)CNC(=O)CNC(=O)[C@@H](N)Cc1ccc(O)cc1)C(=O)N[C@@H](CCCNC(=N)N)C(=O)O", "note": "[B, [Met^5]enkephalylArg]", "values": [
      {"measurement": "Ki", "value": "544 ± 22", "unit": "nM"}
    ]}
  ]
}
